Screening data as filed in PubChem.
Rows were chosen to be rich in hits. Some 0.92% of all compounds tested hit in one or more screens of this group.
uPA generation = inhibitors of cell surface uPA generation; cell surface uPA generation assay, qHTS; Potency, µM (series often up to 38.3 µM), inactives show at the highest dose activity change, negative = inhibition, hits mostly inhibitors; hit rate 0.31% among 330,000; AID 540303; active = well fitted inhibition curve with a large enough effect; inconclusive = small, poorly fitted or top-dose-only effect; inactive = no such curve, though single readings can be large or run the other way; tested in mouse RAW 264.7 cells; note: potency is the fitted concentration of half-maximal effect; % is set by controls: 0 for no effect and ±100 for the full control effect; nearly all actives have a fitted effect of over 55% in size
Giardia kill = Giardia lamblia killing. Giardia lamblia trophozoite viability. activity change, % at 7.66 µM, hits read low. hit rate 0.15% among 340,000. AID 540267; in the data active = activity change below about -80%; inconclusive = between about -30% and that limit;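 note: parasites exposed to compound for two days anaerobically before the ATP read; % is set by controls: 0 for no effect and ±100 for the full control effect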
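ATP-content bioluminescence gauges trophozoite survival. Cells (100/well) receive compound and incubate anaerobically for 48 hrs at 37 deg C; detection reagent follows for 15-30 min at room temperature.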
miR-21 reporter = raises the signal of a miR-21 reporter | HeLa miR-21 FLuc reporter, luciferase, 48 h | Potency, µM (doses to about 38.3 µM), for the others: at the highest dose reporter change, positive = more light | 340,000 tested, under 10 active | AID 2288; active = well fitted rising curve with a large enough effect; inconclusive = small, poorly fitted or top-dose-only effect; inactive = no such curve, though single readings can be large or run the other way;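 also: % of control where 0% means no effect; miR-21 action dims this reporter so a rising signal means less miR-21 action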
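Using DMEM plus 10% FBS, HeLa miR-21-FLuc cells are incubated with test compounds (final up to about 40uM) for 48 hours; firefly luciferase signal is then imaged following reagent-mediated lysis.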
Coupling enz = counter-screen for Giardia aldolase inhibitors: coupling enzyme system | coupling enzyme system counterscreen, AmpLite Red fluorescence | activity change, negative = inhibition, % at 58.2 µM, hits read low | hit rate 0.67% among 290,000; in the data active = activity change below about -30%; note: % is set by controls: 0 for no effect and ±100 for the full control effect
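First, compound is pin-transferred into glyceraldehyde-3-phosphate coupling-enzyme reagent at 57.5 uM final and held 10 min at RT. Next, substrate, coupling system and AmpLite Red are added. After 20 min RT, fluorescence (525/598 nm) is read.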
GALK inh = inhibitors of human galactokinase; Potency, µM (doses to about 57.5 µM), inactives show top-dose activity change, negative = inhibition, actives largely listed as inhibitors; AID 1868; Purified GALK, Kinase-Glo residual ATP luminescence; P51570; hit rate 0.007% among 270,000; note: potency is the fitted concentration of half-maximal effect; % is set by controls: 0 for no effect and ±100 for the full control effect
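ATP-depletion format; final 35 uM ATP, 100 uM D-galactose, 5 nM enzyme; pH 8.0 HEPES/Mg2+ buffer; 60 min RT; luminescence read 10 min after detection reagent.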
B2AR arrestin = recruits beta-arrestin to the human beta2-adrenergic receptor. beta-arrestin recruitment to beta2AR, cell-based reporter. Potency, µM (highest dose often 46.1 µM), for the others: top-dose activation, actives largely listed as activators. hit rate 0.02% among 330,000. AID 492947;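 note: potency is the fitted concentration of half-maximal effect; 0% = DMSO controls and full agonism = EC100 isoproterenol or metaproterenol; nearly all actives have a fitted effect of over 65% in size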
* hit, by the source's call; ? = inconclusive; . = no result. Unless noted, calls come from the whole dose curve; as a rule, active = well fitted curve in the direction sought with a large enough effect; inconclusive = small, poorly fitted or top-dose-only effect, or another doubt; inactive = no such curve, though single readings can be large; an effect the other way counts as inactive or inconclusive.

no. | SMILES | Giardia kill | GALK inh | B2AR arrestin | miR-21 reporter | uPA generation | Coupling enz
1 | COc1ccc(/C=C/C(=O)c2ccc([N+](=O)[O-])o2)cc1OC | -3.2 | . | -0.2% | . | 2.51µM* | .
2 | O=c1c(=O)n(-c2ccccc2)ccn1Cc1cccc(C(F)(F)F)c1 | . | . | . | -1.0% | . | .
3 | O=C(c1c[nH]c2ccccc12)C(O)C(c1ccccc1)N1CCOCC1 (stereo unspecified) | -10.5 | -0.9% | -0.1% | -3.7% | 2.6% | 1.4
4 | O=C(c1c[nH]c2ccccc12)C(Cl)c1ccccc1 (stereo unspecified) | -7.3 | 0.7% | 0.5% | 22.7% | 6.31µM* | 1.4
5 | Cn1c2ccccc2c(=O)n2c(=O)c3ccccc3cc12 | . | ? | -0.1% | -23.2% | . | -34.6*
6 | COc1ccccc1N1CCN(S(=O)(=O)CCNC(=O)Cc2ccc(Cl)cc2)CC1 | . | . | . | 18.8% | . | .
7 | COc1ccccc1N1CCN(S(=O)(=O)CCNC(=O)Cc2ccc(F)cc2)CC1 | -3.3 | . | 0.2% | . | 7.08µM* | .
8 | COc1ccccc1N1CCN(c2cc(=O)n(Cc3ccc(F)cc3)c(=O)[nH]2)CC1 | 5.6 | -0.8% | 0.2% | 2.1% | 2.82µM* | 1.4
9 | N#Cc1cccc(S(=O)(=O)N2CCN(c3nc(-c4cccs4)nc4ccccc34)CC2)c1 | 16.8 | . | . | . | . | .
10 | COc1ccc(CN(Cc2ccccc2)C(=O)c2ccno2)cc1COc1ccc(NC(C)=O)cc1 | 11.2 | . | . | . | . | .

An excerpt from above in order of SMILES length, ascending:
no. | SMILES | Giardia kill | GALK inh | B2AR arrestin | miR-21 reporter | uPA generation | Coupling enz
5 | Cn1c2ccccc2c(=O)n2c(=O)c3ccccc3cc12 | . | ? | -0.1% | -23.2% | . | -34.6*
1 | COc1ccc(/C=C/C(=O)c2ccc([N+](=O)[O-])o2)cc1OC | -3.2 | . | -0.2% | . | 2.51µM* | .
6 | COc1ccccc1N1CCN(S(=O)(=O)CCNC(=O)Cc2ccc(Cl)cc2)CC1 | . | . | . | 18.8% | . | .
9 | N#Cc1cccc(S(=O)(=O)N2CCN(c3nc(-c4cccs4)nc4ccccc34)CC2)c1 | 16.8 | . | . | . | . | .

(cont.)
no. | SMILES | Giardia kill | GALK inh | B2AR arrestin | miR-21 reporter | uPA generation | Coupling enz
11 | CCOC(=O)c1c(N)c2cc([N+](=O)[O-])cnc2n1C | -3.2 | 1.8% | -0.7% | -4.1% | 0.9% | -1.2
12 | Cn1c([N+](=O)[O-])cnc1COC(N)=O | -90.1* | -2.9% | -0.2% | 1.6% | 13.9% | 3.8
13 | COc1ccc(Sc2ccccc2CN(C)C)cc1OC | -2.0 | -2.9% | -0.1% | -7.1% | 4.9% | 0.0
14 | CNCc1ccccc1Sc1ccc(O)c(O)c1 | 7.4 | 2.1% | 0.1% | ? | -11.5% | -40.3*
15 | CC(C)(C)NC(=O)CCN(/N=C/c1ccc([N+](=O)[O-])o1)C1=NS(=O)(=O)c2ccccc21 | -92.4* | 1.5% | -0.9% | -8.2% | -16.8% | -5.0
16 | CCOc1ccc(-c2cc(-c3nc(-c4cc(OC)c(OC)c(OC)c4)no3)[nH]n2)cc1Cl | . | . | . | 0.6% | . | .
17 | COC(=O)c1cc(OC)c(OC)c(OC)c1NC(=O)c1cc(=O)n(C)c(=O)n1C | . | . | . | 1.5% | . | .
18 | Cc1ccc(Nc2nc(Nc3ccc(Cl)cc3)nc(N3CCOCC3)n2)cc1 | 0.3 | . | . | . | . | .
19 | C/C(=N/NC(=O)C(O)(c1ccccc1)c1ccccc1)c1ccc([N+](=O)[O-])o1 | -90.4* | 0.2% | 0.4% | 21.8% | . | -5.3
20 | O=C(NN(c1ccccc1)c1ccccc1)c1ccc([N+](=O)[O-])o1 | -89.3* | 1.0% | 0.4% | 23.6% | -7.8% | -5.6
21 | NC(=O)c1oc2ccccc2c1NC(=O)c1ccc([N+](=O)[O-])o1 | -88.1* | -3.7% | -0.2% | 18.9% | -3.7% | -2.6
22 | O=C(NNC(=O)c1ccc([N+](=O)[O-])o1)c1ccccc1 | -97.8* | 0.7% | 0.9% | 27.6% | -8.1% | -8.9
23 | Cc1ccc(-c2[nH][nH]c(=O)c(=O)c2N=Nc2ccccc2)cc1 | -92.5* | . | 0.5% | -8.3% | 3.8% | -1.0
24 | Cc1cc(=O)n2[nH]c(=O)c(N=Nc3ccccc3)c2[nH]1 | -26.1 | -0.3% | -0.4% | -7.1% | 3.2% | 4.7
25 | Cc1cccc(C(=O)NCC(=O)OCc2cc(=O)n3nc(C4CC4)sc3n2)c1 | . | . | . | -3.4% | . | .
26 | Cc1[nH]c2ccc3c(ncn3CCC#N)c2c1C | -24.7 | -0.4% | 0.0% | -13.4% | 4.1% | -36.5*
27 | Nc1ncc(O)c(N)n1 | . | . | . | . | . | -1.1
28 | CCOC(=O)c1c(C)oc2c1c1c(c3ccccc32)OCN(Cc2ccccn2)C1 | 1.7 | -2.5% | -0.3% | -49.6% | 0.6% | -37.3*
29 | CCOC(=O)c1c(C)oc2c1c(C(c1ccncc1)N1CCOCC1)c(O)c1ccccc12 (stereo unspecified) | 0.0 | -4.8% | -0.2% | -88.7% | -7.5% | -48.2*
30 | CCOC(=O)c1c(C)oc2c1c(CN1CCN(C(=O)OCC)CC1)c(O)c1ccccc12 | -11.8 | -0.5% | 3.9% | -72.2% | -6.0% | -23.4
31 | COCc1cc(C)nc2c1C(=O)NC(c1ccc(Br)cc1)N2Cc1ccccc1 (stereo unspecified) | . | . | . | -2.8% | . | .
